Sequences of proteins named here, by UniProt entry; tags and fusion partners are left off. A change or cut given only in a name is not applied to a line headed by its entry.
UniProt P33533, whole entry: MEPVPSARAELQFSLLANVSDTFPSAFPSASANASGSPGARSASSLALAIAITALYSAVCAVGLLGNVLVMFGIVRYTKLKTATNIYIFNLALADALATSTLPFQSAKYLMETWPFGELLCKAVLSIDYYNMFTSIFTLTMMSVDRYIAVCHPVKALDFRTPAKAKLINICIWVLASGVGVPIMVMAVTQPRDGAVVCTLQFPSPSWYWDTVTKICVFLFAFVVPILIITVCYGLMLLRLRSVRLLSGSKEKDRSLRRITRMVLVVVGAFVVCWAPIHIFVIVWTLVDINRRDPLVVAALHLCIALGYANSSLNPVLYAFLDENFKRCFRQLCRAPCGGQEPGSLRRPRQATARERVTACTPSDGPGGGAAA
UniProt P41145: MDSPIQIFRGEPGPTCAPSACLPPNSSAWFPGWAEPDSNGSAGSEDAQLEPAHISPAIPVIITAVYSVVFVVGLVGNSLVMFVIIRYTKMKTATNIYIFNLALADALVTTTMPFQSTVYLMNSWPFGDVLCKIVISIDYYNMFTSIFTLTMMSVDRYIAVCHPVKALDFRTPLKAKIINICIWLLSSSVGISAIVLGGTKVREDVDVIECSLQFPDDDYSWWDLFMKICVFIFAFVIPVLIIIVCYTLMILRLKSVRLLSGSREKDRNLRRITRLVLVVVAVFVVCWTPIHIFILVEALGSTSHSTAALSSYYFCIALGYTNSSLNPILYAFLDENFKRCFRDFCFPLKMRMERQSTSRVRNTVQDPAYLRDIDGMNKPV

In ChEMBL document CHEMBL3822362, “Effects of N-Substitutions on the Tetrahydroquinoline (THQ) Core of Mixed-Efficacy μ-Opioid Receptor (MOR)/δ-Opioid Receptor (DOR) Ligands” (J Med Chem, 2016):

Columns and labels:
[1] = target: Delta-type opioid receptor (Rattus norvegicus) (UniProt P33533); experiment: Agonist activity at rat DOR transfected in rat C6 cell membranes at 10 uM after 1 hr by [35S]GTPgammaS assay relative to DPDPE; assay type: functional
Outline: (§1)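 Membranes (10–20 μg protein) from cells grown to confluence in DMEM/10% FBS, incubated 1 h at 25 °C in 50 mM Tris-HCl, 100 mM NaCl, 5 mM MgCl2, pH 7.4 with 0.1 nM [35S]GTPγS, 30 μM GDP and varying peptidomimetic concentrations. Filtered on GF/C, counted by scintillation. % stimulation relative to 10 μM DAMGO (MOR), DPDPE (DOR) or U69,593 (KOR).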

[2] = target: Kappa-type opioid receptor (Homo sapiens, UniProt P41145); experiment: Agonist activity at human KOR expressed in CHO cell membranes at 10 uM after 1 hr by [35S]GTPgammaS assay relative to U69,593; assay type: functional; outline: as §1

Compound	Emax [1]	Emax [2]
CCC(=O)N1CC[C@@H](NC(=O)[C@@H](N)Cc2c(C)cc(O)cc2C)c2cc(Cc3ccc4ccccc4c3)ccc21	inactive	–
COC(=O)N1CC[C@@H](NC(=O)[C@@H](N)Cc2c(C)cc(O)cc2C)c2cc(Cc3ccc4ccccc4c3)ccc21	inactive	inactive
Cc1cc(O)cc(C)c1C[C@H](N)C(=O)N[C@@H]1CCN(C(=O)c2ccccc2)c2ccc(Cc3ccccc3)cc21	inactive	–

Activity calls are given as the source filed them. The rule behind the calls is not given here.
